# Values quoted from earlier work as cited in US6403816B1, “Betulinic acid derivatives having antiangiogenic activity, processes for producing such derivatives and their use for treating tumor associated angiogenesis” (Dabur Research Foundation, priority 1997, dated 2002).
# Amino acid sequences for entries named in this document (tags omitted). Residues count along the entry.
# UniProt P16109, 42-830, species assumed: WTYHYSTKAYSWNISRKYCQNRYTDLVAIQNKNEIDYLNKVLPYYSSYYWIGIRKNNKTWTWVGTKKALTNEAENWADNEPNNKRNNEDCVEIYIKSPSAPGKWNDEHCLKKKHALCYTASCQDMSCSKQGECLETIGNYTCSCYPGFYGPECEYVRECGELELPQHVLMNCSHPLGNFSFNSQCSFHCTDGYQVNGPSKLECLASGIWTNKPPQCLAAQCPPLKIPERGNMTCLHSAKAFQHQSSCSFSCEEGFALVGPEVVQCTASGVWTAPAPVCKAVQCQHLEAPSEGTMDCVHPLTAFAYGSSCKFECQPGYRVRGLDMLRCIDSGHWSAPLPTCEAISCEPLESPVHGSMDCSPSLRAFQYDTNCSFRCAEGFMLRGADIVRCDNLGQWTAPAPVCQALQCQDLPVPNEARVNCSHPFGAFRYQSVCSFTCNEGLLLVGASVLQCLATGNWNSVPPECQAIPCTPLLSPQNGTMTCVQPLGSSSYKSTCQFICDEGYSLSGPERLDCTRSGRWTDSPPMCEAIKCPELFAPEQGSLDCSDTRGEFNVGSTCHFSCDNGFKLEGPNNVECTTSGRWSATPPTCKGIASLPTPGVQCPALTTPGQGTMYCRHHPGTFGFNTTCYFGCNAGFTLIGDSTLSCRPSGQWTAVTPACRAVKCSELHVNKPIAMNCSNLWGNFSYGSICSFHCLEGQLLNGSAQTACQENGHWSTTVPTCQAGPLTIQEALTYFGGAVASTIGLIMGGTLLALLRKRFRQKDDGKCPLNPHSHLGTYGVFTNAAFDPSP
# Key:
# P-Selectin [1] = target: T1, P-Selectin (Homo sapiens, UniProt P16109); details: read-out: IC50, inhibition of P-Selectin binding to 2,3, sLex; cited from earlier work
# P-Selectin [2] = target: T1, P-Selectin; details: read-out: IC50, inhibition of P-Selectin binding HL-60 cells; dose-dependent; cited from earlier work
structure (smiles),measurement,setting,value
C=C(C)[C@@H]1CC[C@]2(C(=O)O)CC[C@]3(C)[C@H](CC[C@@H]4[C@@]5(C)CC[C@H](O)C(C)(C)[C@@H]5CC[C@]43C)[C@@H]12 [Betulinic acid],pIC50,P-Selectin [1],3.90
same,pIC50,P-Selectin [2],3.12

# pIC50: −log10 of the molar value. Like-named read-outs stand apart in the source and are kept apart here.
